Laboratory results reported in article PMC7723054.
This is one part of the list.

T1: LIN28A (human?, UniProt Q9H9Z2 1-209)
T1 sequence: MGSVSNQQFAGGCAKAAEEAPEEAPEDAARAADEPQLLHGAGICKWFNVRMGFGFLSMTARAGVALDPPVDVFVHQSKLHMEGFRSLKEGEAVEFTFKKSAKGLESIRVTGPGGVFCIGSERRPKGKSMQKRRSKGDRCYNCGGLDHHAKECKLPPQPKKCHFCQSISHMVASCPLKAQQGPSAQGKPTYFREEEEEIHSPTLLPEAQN

T2: CIRBP (Homo sapiens, UniProt Q14011 1-172)
T2 sequence: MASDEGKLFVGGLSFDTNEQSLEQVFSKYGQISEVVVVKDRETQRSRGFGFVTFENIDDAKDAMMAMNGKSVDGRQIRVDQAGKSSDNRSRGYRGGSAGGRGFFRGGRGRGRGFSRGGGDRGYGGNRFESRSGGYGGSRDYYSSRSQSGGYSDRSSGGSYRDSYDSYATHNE

T3: DHX36 (Homo sapiens, UniProt Q9H2U1 1-1008)
T3 sequence: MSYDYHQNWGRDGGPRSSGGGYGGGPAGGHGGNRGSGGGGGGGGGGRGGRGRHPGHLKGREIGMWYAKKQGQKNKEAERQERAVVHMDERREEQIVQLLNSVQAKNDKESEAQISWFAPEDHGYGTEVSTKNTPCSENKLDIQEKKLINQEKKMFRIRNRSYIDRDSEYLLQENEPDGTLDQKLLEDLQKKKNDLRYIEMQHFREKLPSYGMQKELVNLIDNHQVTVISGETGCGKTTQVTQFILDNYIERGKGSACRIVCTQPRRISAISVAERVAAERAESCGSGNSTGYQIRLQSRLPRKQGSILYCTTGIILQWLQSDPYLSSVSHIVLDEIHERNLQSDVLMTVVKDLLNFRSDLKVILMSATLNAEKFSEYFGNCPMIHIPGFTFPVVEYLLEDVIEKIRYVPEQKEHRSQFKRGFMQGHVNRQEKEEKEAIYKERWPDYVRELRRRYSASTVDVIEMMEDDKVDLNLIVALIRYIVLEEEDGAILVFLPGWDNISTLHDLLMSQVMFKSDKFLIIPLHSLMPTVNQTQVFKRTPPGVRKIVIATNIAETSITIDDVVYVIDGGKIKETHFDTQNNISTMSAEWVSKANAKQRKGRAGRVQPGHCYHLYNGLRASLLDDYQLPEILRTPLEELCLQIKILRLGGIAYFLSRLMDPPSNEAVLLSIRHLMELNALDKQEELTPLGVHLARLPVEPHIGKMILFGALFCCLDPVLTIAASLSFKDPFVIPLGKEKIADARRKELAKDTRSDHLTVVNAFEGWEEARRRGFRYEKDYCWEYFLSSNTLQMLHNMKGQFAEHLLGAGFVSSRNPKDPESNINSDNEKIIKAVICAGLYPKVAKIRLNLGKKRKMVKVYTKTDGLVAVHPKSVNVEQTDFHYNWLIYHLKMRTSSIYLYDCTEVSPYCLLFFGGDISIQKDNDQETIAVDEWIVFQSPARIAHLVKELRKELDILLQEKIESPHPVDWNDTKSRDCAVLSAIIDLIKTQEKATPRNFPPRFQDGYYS

B1: hsa-mir-4665 (structured_RNA)
RNA: GGGAACGUGGUAAGUCUGGAUCGAAACCGGUGUACGAAGUUUCAGCCGAGCCGCUUCCUCACGGCUCGGCUGAAGCUUCGUGCAC
B2: hsa-mir-7975 (structured_RNA)
RNA: GGGACCCUUAUGGGAGAUCCCCGUUCCUGGUGUACGAAGUUUCAGCAGGACAGGGGAUUUAUCUCCCAAGGGAGGUCCCCUGAUGCUGAAGCUUCGUGCAC
B3: hsa-mir-548x (structured_RNA)
RNA: GGGAAUGACGCCUGGGGAUUGAUCACUUGGUGUACGAAGUUUCAGCUUUGCGUUACUUUCAAUCGUAAAGCUGAAGCUUCGUGCAC
B4: hsa-mir-515-1_515-2 (structured_RNA)
RNA: GGGACAAUGGGUGUCCGAGGCUAUAAUCGGUGUACGAAGUUUCAGCUUUCUGUUGUCUGAAAGCAGAGCUGAAGCUUCGUGCAC
B5: hsa-mir-520a (structured_RNA)
RNA: GGGAAACCUGGUCACGGCUGCCGAAUUAGGUGUACGAAGUUUCAGCCUUUCUGUUGUCUGAGAGAAAAGAAAGGCUGAAGCUUCGUGCAC
B6: PARIS_ID29 (structured_RNA)
RNA: GGGAAAGCUGUUGCACUAGACAGUCCUCGGUGUACGAAGUUUCAGCGCCAAAAUAGAAUAAUGUUGGUGCUGAAGCUUCGUGCAC
B7: hsa-mir-1247 (structured_RNA)
RNA: GGGAAAGACUCCCCAGUGAGGCUCUCAGGGUGUACGAAGUUUCAGCCGGACGUUGCUCUCUACCCCGGCUGAAGCUUCGUGCAC
B8: hsa-mir-620 (structured_RNA)
RNA: GGGAACCAUGACGGUCGCGGGUUUUAUGGGUGUACGAAGUUUCAGCCCGUAUAUAUAUAUAUAUAUAUAUAGAUAUCUCCAUAUAUAUGGGCUGAAGCUUCGUGCAC
B9: hsa-mir-92a-2 (structured_RNA)
RNA: GGGAAUCGAGGUAGUUACGACUCGCCUUGGUGUACGAAGUUUCAGCAUUACUUGUGUUCUAUAUAAAGUAUUGCUGAAGCUUCGUGCAC
B10: hsa-mir-3177 (structured_RNA)
RNA: GGGAAACUCAAUAUCAACGGCCGGUCCGGGUGUACGAAGUUUCAGCGGCGCUGUCUUGAGACAUUCGCGCAGUGCAGCUGAAGCUUCGUGCAC
B11: hsa-mir-3908 (structured_RNA)
RNA: GGGAAAGUAGCAAAGCCGCUGUCAAGCGGGUGUACGAAGUUUCAGCGUUUCUAAAAAAAUAAAAAGUUAAAAAAAUUUAUGUUAACGUGUAAUGUGUUUACUAAUUUUUUUUUUUUUUUUUGGAGACGCUGAAGCUUCGUGCAC
B12: hsa-mir-3529 (structured_RNA)
RNA: GGGACCAAUAGGCCAGACGUUCGCAAUUGGUGUACGAAGUUUCAGCUGUUGAGCGCAGUAAGACAACAGCUGAAGCUUCGUGCAC

The binders below were run against T1, LIN28A (assay: FOREST: bead pull-down of RNA structure library v1, barcode microarray; U1A/LIN28A: 20 mM HEPES pH 7.5, 80 mM KCl, 20 mM NaCl, 10% glycerol, 2 mM DTT, 0.1 ug/uL BSA, 4 C; BG4/CIRBP/DHX36: 10 mM Tris-HCl pH 7.5, 100 mM KCl (or LiCl),; high values mean tight binding).
Binder B1 has a binding signal of -0.285 z-score.
B2 showed a binding signal of -0.279 z-score.
With B3 the binding signal was -0.286 z-score.
With B4 the binding signal was -0.289 z-score.
B5 showed a binding signal of -0.32 z-score.
In the case of B6, the binding signal is reported as -0.323 z-score.
For B7, the binding signal was -0.28 z-score.
B8 was tested, and the binding signal was -0.299 z-score.
Binder B9 has a binding signal of -0.308 z-score.
Binder B10 has a binding signal of -0.32 z-score.
Binder B11 has a binding signal of -0.31 z-score.
Binder B12 has a binding signal of -0.307 z-score.

The binders below were run against T2, CIRBP in the same assay as above.
With B1 the binding signal was 0.934 z-score.
B2 gave a binding signal of 0.18 z-score.
For B3, the binding signal was 0.0938 z-score.
B4 showed a binding signal of 0.595 z-score.
For B5, the binding signal was 0.00617 z-score.
In the case of B6, the binding signal is reported as 0.00506 z-score.
With B7 the binding signal was 0.398 z-score.
B8 was tested, and the binding signal was -0.861 z-score.
B9 was tested, and the binding signal was -1.27 z-score.
B10 was tested, and the binding signal was -0.595 z-score.
B11 gave a binding signal of 0.66 z-score.
With B12 the binding signal was 0.357 z-score.

These binders were tested against T3, DHX36 in the same assay as above.
B1 was tested, and the binding signal was 0.206 z-score.
With B2 the binding signal was 0.798 z-score.
Binder B3 has a binding signal of -0.52 z-score.
Work on B4 yielded a binding signal of 0.0127 z-score.
For B5, the binding signal was -0.572 z-score.
In the case of B6, the binding signal is reported as -0.0337 z-score.
In the case of B7, the binding signal is reported as -0.404 z-score.
In the case of B8, the binding signal is reported as 0.541 z-score.
With B9 the binding signal was -0.942 z-score.
B10 was tested, and the binding signal was -1.44 z-score.
Work on B11 yielded a binding signal of -0.135 z-score.
With B12 the binding signal was -0.323 z-score.
